Measurements published in BindingDB's records for doi:10.1038/350610a0 (University of Toronto, 1991).

Protein sequences, listed by entry. Tags and fused reporters are not part of them.
UniProt Q589Y6, whole entry: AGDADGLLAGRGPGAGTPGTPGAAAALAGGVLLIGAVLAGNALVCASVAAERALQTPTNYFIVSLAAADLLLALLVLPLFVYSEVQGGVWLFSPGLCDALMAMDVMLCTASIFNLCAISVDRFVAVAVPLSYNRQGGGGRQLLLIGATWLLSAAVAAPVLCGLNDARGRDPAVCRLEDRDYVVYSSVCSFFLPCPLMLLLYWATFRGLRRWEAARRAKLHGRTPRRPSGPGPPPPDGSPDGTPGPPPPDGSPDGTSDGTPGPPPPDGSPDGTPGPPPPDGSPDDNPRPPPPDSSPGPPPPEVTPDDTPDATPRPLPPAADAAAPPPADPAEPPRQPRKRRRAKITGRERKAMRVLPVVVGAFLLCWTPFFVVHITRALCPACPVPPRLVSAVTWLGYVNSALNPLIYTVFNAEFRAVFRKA

Target: Dopamine receptor D4 (Canis lupus familiaris, UniProt Q589Y6)

- Ki: 13.5 nM and 1.6 nM
Compound: CN1CCN([C@@H]2Cc3ccccc3Sc3ccc(Cl)cc32)CC1

Several values for one entry are separate records, joined by “and”; a condition that tells them apart may be missing. Equal entries are not always repeated.
